# Antibody variant affinities, Ab-95 light chain, assay 2

Target: peptide PDVDLGDISGINAS, taken from heptad repeat 2 (HR2) of SARS-CoV-2 spike.

Parent: Ab-95, a human scFv built as VH, three GGGGS repeats, VL. Only the CDRs of the light chain vary.
VH: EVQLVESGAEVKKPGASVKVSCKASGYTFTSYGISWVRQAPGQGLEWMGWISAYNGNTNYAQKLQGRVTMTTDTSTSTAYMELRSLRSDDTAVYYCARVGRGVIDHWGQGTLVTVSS
VL: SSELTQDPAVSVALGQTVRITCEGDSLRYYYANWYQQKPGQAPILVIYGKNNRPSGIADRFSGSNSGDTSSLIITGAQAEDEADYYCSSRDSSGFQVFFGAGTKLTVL

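The parent was found by panning a naive human phage display library on the peptide. Variants in AAYL52 differ from the parent at up to three CDR positions; double and triple changes were sampled at random. AlphaSeq pools MATa yeast showing the antibodies with MATalpha yeast showing the peptide. Pairs that bind mate more often; barcode pairs of the diploids are counted by sequencing. A regression on co-assayed BCL2-family reference pairs converts the normalised counts of each replicate to an apparent Kd. Mating was done three times.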

Each variant's VL is given in full.
Affinities are written as log10 Kd with Kd in nM; a lower number is a better binder.
The mean shown is taken over the replicates in which the pair was detected.
"not detected" marks a missing value. The strain was present, yet no cells mated with the target were sequenced in any replicate, which points to weak or no binding.

VL,mean log10 Kd (nM),replicates with signal
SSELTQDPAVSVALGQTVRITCEGDSLRYYYNNWYQQKPGQAPILVIYGKNNEPSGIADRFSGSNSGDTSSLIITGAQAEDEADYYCSSRDSSGHQVFFGAGTKLTVL,4.66,2 of 3
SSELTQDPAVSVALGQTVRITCEGDSLRYYYANWYQQKPGQAPILVIYGKNNRPSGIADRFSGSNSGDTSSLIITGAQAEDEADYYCASNDSSGFQVFFGAGTKLTVL,3.54,3 of 3
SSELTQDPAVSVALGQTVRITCRGDPLRYYYANWYQQKPGQAPILVIYGKNNRPSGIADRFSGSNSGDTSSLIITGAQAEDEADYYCSSVDSSGFQVFFGAGTKLTVL,2.59,3 of 3
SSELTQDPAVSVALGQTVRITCEGCSLRYYYANWYQQKPGQAPILVIYGKNNRPSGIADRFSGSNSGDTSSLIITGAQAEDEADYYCSSRDSSGFPVFFGAGTKLTVL,3.70,1 of 3
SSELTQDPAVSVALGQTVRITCEGDSLRYYYANWYQQKPGQAPILVIYGKNLRPSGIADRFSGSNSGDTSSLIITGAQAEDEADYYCWSRDSSGSQVFFGAGTKLTVL,3.62,2 of 3
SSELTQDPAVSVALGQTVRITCEGDSLRYYYANWYQQKPGQAPILVIYHKNNPPSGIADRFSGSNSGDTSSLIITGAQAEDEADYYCSSRDVSGFQVFFGAGTKLTVL,3.57,1 of 3
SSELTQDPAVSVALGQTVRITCEGDCLRYQYANWYQQKPGQAPILVIYGKNNRPSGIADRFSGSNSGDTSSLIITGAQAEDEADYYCSSRQSSGFQVFFGAGTKLTVL,4.15,2 of 3
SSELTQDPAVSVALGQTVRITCEGDSKRYYYANWYQQKPGQAPILVIYGKWNRPSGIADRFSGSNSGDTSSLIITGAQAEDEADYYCSSRSSSGFQVFFGAGTKLTVL,not detected,0 of 3
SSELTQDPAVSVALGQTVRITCEGDSLRYYYANWYQQKPGQAPILVIYGKNYRPNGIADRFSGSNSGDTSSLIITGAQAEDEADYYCSSRDSSGFYVFFGAGTKLTVL,3.67,3 of 3
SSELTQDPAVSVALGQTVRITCEGWSLRYYYANWYQQKPGQAPILVIYGKNNRPSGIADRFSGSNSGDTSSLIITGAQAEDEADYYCSSDDSSPFQVFFGAGTKLTVL,not detected,0 of 3
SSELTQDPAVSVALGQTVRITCEGDSLRYYRANWYQQKPGQAPILVIYGKNNRPPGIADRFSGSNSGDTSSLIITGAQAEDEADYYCSSRDSSGFQVFFGAGTKLTVL,2.12,3 of 3
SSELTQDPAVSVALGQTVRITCEGDSLRYYYAMWYQQKPGQAPILVIYGKNNRPSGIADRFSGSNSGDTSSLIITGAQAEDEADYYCSSRDSNGFQVFFGAGTKLTVL,2.27,3 of 3
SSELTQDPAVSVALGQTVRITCEGDSLRYYYANWYQQKPGQAPILVIYGHNNEPSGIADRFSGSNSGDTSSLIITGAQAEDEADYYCSSRDSSKFQVFFGAGTKLTVL,not detected,0 of 3
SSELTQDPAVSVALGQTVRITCDGDSLRYYYANWYQQKPGQAPILVIYGKNNGPSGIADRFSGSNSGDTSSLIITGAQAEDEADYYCSSYDSSGFQVFFGAGTKLTVL,4.90,2 of 3
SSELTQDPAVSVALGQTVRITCEGDSLRFYYANWYQQKPGQAPILVIYGKNNRPSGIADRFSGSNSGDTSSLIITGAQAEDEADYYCSSRKSSGFQVDFGAGTKLTVL,not detected,0 of 3
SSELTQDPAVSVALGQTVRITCEGDSLRYYYANWYQQKPGQAPILVIYGKNNRPCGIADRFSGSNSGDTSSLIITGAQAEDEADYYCSSRMSSGFGVFFGAGTKLTVL,not detected,0 of 3
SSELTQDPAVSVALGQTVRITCEGDSLRYYYENWYQQKPGQAPILVIYGKNNRPSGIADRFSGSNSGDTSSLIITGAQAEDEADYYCSSKDSSGFQVFFGAGTKLTVL,not detected,0 of 3
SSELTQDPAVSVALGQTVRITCEGGSLRYYYANWYQQKPGQAPILVIYGKNVRPSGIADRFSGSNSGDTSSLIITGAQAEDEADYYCSVRDSSGFQVFFGAGTKLTVL,2.68,3 of 3
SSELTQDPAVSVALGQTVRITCEGPSLRYYYANWYQQKPGQAPILVIYGDNNKPSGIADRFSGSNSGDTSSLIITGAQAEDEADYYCSSRDSSGFQVFFGAGTKLTVL,2.06,3 of 3
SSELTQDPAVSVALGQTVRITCERDSLRYYYANWYQQKPGQAPILVIYGKNNRVSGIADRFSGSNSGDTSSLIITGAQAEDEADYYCLSRDSSGFQVFFGAGTKLTVL,4.48,3 of 3
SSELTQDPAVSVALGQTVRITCEGDSYRAYYANWYQQKPGQAPILVIYGKNNRPSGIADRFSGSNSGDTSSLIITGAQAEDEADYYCSSRDSSGQQVFFGAGTKLTVL,3.17,2 of 3
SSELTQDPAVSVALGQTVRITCEGDCLRYYYANWYQQKPGQAPILVIYGKNNRWSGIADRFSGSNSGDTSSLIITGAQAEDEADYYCSSRDSHGFQVFFGAGTKLTVL,5.54,1 of 3
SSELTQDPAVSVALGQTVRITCEGDSLRYYYANWYQQKPGQAPILVIYGKNNQPSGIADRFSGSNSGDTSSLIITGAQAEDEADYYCSSRDSHLFQVFFGAGTKLTVL,4.03,3 of 3
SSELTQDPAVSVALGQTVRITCEGDSLRYYYANWYQQKPGQAPILVIYGKNNAHSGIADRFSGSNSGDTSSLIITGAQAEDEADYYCSGRDSSGFQVFFGAGTKLTVL,3.77,2 of 3
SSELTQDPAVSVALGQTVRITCEGDSLSYYYANWYQQKPGQAPILVIYGKNNRPSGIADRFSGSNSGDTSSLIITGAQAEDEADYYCFSRDSSDFQVFFGAGTKLTVL,3.43,2 of 3

The last 2 entries again:

{"VL": "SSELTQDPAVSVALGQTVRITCEGDSLRYYYANWYQQKPGQAPILVIYGKNNAHSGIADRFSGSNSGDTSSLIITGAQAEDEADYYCSGRDSSGFQVFFGAGTKLTVL", "mean log10 Kd (nM)": "3.77", "replicates with signal": "2 of 3"}
{"VL": "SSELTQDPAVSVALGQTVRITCEGDSLSYYYANWYQQKPGQAPILVIYGKNNRPSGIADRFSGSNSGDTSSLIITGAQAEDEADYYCFSRDSSDFQVFFGAGTKLTVL", "mean log10 Kd (nM)": "3.43", "replicates with signal": "2 of 3"}

As a blank, each scFv also met three strains without target: over library AAYL52, 28% of these pairings were detected, typically at 3.91 and seldom below 2.90.

From the AlphaSeq antibody data of Engelhart et al. 2022 (doi:10.1038/s41597-022-01779-4), copy in the FLAb collection.